Experimental properties from OPERA 2.9

Values as listed in the OPERA 2.9 repository of K. Mansouri.

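These are experimental values that the OPERA curators gathered from public databases to train and test their QSAR models. The files give a single number for a compound and property, which may rest on several reports. Conditions of the individual experiments are not part of the data. A value may pool stereoisomers or salt forms, and the file does not say which form was measured. Some entries may be limits or estimates that an upstream database listed as plain numbers.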

Melting points are in °C.
Boiling points are in °C, nominally at 760 mmHg.
The octanol-water partition coefficient is given as log10; larger values mean a more lipophilic compound.
Solubility in water is on a log10 molar scale (set defined at 25 °C).
Vapor pressures (log10 mmHg) refer to near room temperature, 15 to 30 °C; higher is more volatile.
The unbound fraction in human plasma runs from 0 (all bound) to 1 (all free).
Clint is human hepatic intrinsic clearance in µL/min per million cells; 0 means that no clearance was seen.
Cells with "n/a" have no entry in this list.

* CC(=O)OCCC(C)CC=O (stereo not given): boiling point 211.8 °C; log VP -1.62 (log10 mmHg)
* CN(C)c1ccc(C(O)(c2ccc(N(C)C)cc2)c2ccc(Nc3ccccc3)c3ccccc23)cc1: logP 6.39; water solubility -6.989 (log10 mol/L)
* CC(C)=CCCC(C)=CC#N: logP 3.145; log VP -1.557 (log10 mmHg)
* Cc1csc(=O)[nH]1: mp 99 °C; water solubility -0.66 (log10 mol/L)
* CCOC(=O)C(C)(O)c1ccc(Oc2ccccc2)cc1 (stereo not given): mp -14.3 °C; boiling point 280 °C; logP 2.7; water solubility -4.192 (log10 mol/L); log VP -6.745 (log10 mmHg)
* CCOC(=O)C[C@H](NCCC[Si](OC)(OC)OC)C(=O)OCC: boiling point 264.5 °C; log VP -4.377 (log10 mmHg)
* CC[C@@H]1C=C(C)C[C@H](C)C[C@H](OC)[C@H]2O[C@@](O)(C(=O)C(=O)N3CCCC[C@H]3C(=O)O[C@H](/C(C)=C/[C@@H]3CC[C@@H](Cl)[C@H](OC)C3)[C@H](C)[C@@H](O)CC1=O)[C@H](C)C[C@@H]2OC: logP 4.4; water solubility -5.727 (log10 mol/L)
* COC1=CCC2=C(CCC3C2CCC2(C)C(=O)CCC32)C1 (stereo not given): logP 5.35; water solubility -4.98 (log10 mol/L)
* Nc1cccc(OC2(Oc3cccc(N)c3)C=CC(c3ccccc3)=CC2)c1: logP 3.2; water solubility -8.268 (log10 mol/L); log VP -6.347 (log10 mmHg)
* CCCOCOCCC: logP 2.04; water solubility -1.559 (log10 mol/L); log VP 1.176 (log10 mmHg)
* C=CCCC1CCC(C2CCC(c3ccc(C)cc3)CC2)CC1 (stereo not given): mp 103.7 °C; water solubility -6.869 (log10 mol/L)
* C=CC(O)C#CC(C)(C)C (stereo not given): logP 2.4; water solubility -1.506 (log10 mol/L)
* O=C(Nc1ccc(Cl)cc1)Nc1ccc(Cl)c(Cl)c1: logP 4.342; water solubility -5.704 (log10 mol/L)
* CNC(=O)N(c1ccccc1)c1ccccc1: boiling point 292.8 °C; logP 1.69; water solubility -2.669 (log10 mol/L); log VP -7.25 (log10 mmHg)
* O=C(CCCN1CC=C(n2c(=O)[nH]c3ccccc32)CC1)c1ccc(F)cc1: water solubility -3.587 (log10 mol/L); fu 0.05
* CCc1nccnc1C: mp -33.1 °C; log VP 0.185 (log10 mmHg)
* CO[Si](C)(C)CCl: mp -100.2 °C; boiling point 121.2 °C; log VP 1.18 (log10 mmHg)
* N#CC(c1ccc(Cl)cc1)c1c(Cl)cc(-n2ncc(=O)[nH]c2=O)cc1Cl (stereo not given): water solubility -7.611 (log10 mol/L); log VP -6.233 (log10 mmHg)
* C=Cc1ccccc1: fu 0.1801; hepatic Clint 8.516 µL/min/10^6 cells
* C=C(C)C(=O)OCCN1CCNC1=O: mp 28 °C; logP 1.315
* CC(=O)CC(=O)Nc1ccccc1C: logP 0.85; water solubility -1.85 (log10 mol/L); log VP -6.182 (log10 mmHg)
* COC(=O)C(=O)c1ccccc1: logP 1.9; log VP -1.557 (log10 mmHg)
* COc1ccc(C(O)CC(O)c2ccc(C(C)(C)C)cc2)cc1 (stereo not given): mp 50.35 °C; logP 3.8; water solubility -3.838 (log10 mol/L)
* COc1ccc(S(=O)(=O)N2C(=O)[C@@](c3ccccc3OC)(N3C[C@H](O)C[C@H]3C(=O)N(C)C)c3cc(Cl)ccc32)c(OC)c1: fu 0.0608; hepatic Clint 35.3 µL/min/10^6 cells
* CCCCC(CC)COC(=O)C(C#N)=C(c1ccccc1)c1ccc(OC)cc1 (stereo not given): water solubility -6.991 (log10 mol/L); log VP -9.727 (log10 mmHg)
* CC1(C)c2ccccc2-c2ccc(N(c3ccccc3-c3ccccc3)c3cccc4c3-c3ccccc3C43c4ccccc4-c4ccccc43)cc21: mp 266 °C; water solubility -7.131 (log10 mol/L); log VP -9.319 (log10 mmHg)

2 of these entries, quoted again:

structure (SMILES)	mp (°C)	boiling point (°C)	logP	water solubility (log10 mol/L)	log VP (log10 mmHg)	fu	hepatic Clint (µL/min/10^6 cells)
CCOC(=O)C(C)(O)c1ccc(Oc2ccccc2)cc1 (stereo not given)	-14.3	280	2.7	-4.192	-6.745	n/a	n/a
COC1=CCC2=C(CCC3C2CCC2(C)C(=O)CCC32)C1 (stereo not given)	n/a	n/a	5.35	-4.98	n/a	n/a	n/a